Assays:
HT-29 cells = experiment: In vivo xenograft murine model, colorectal cancer; settings: 2 mg/kg intravenous
HCT116 cells [1] = experiment: Iron competition assay with DFO, MTS assay; type: cell-based, human; settings: 24 hours
U251 human glioblastoma = experiment: Antitumoral effect, MTS metabolism assay, U251; type: cell-based; settings: read-out: IC50 U251, 72 hours
[2] = system: PC3 human prostate adenocarcinoma; experiment: Antitumoral effect, MTS metabolism assay, PC3; type: cell-based; settings: read-out: IC50 PC3, 72 hours
[3] = system: HCT116 human colorectal carcinoma; experiment: Antitumoral effect, MTS metabolism assay, HCT116; type: cell-based; settings: read-out: IC50 HCT116, 72 hours
[4] = system: AML12 murine immortalized hepatocyte cell line; experiment: Toxicity for non-tumoral cells, MTS assay, AML12; type: cell-based
[5] = system: MCF7 human breast adenocarcinoma; experiment: Antitumoral effect, MTS metabolism assay, MCF7; type: cell-based; settings: read-out: IC50 MCF7, 72 hours
HCT116 cells [6] = experiment: Fluorescence imaging for compound cellular localization; settings: 1 μM, 24 hours incubation

Substance: 5-hydroxydispiro[adamantane-2,3′-[1,2,4,5]tetraoxane-6′,1″-cyclohexan]-3″-yl (3-hydroxy-2-methyl-6-(((2S, 4S)-4,5,12-trihydroxy-4-(2-hydroxyacetyl)-10-methoxy-6,11-dioxo-1,2,3,4,6,11-hexahydrotetracen-2-yl)oxy)tetrahydro-2H-pyran-4-yl)carbamate
- tumour volume versus vehicle control at day 12 (HT-29 cells; day 12, p<0.05): significant reduction in tumour volume
- reduction of the tumour mass versus negative control and vehicle control (HT-29 cells; eight injections): higher reduction of the tumour mass
- reduction of tumour mass compared with doxorubicin (HT-29 cells; eight injections): more efficient in reducing the tumour mass than doxorubicin
- induction of cell death (cell viability, MTS) (HCT116 cells [1]; 10 μM compound alone, versus DMSO): induces cell death
- reduction in potency with DFO versus compound alone (HCT116 cells [1]; 10 μM compound together with 1 μM DFO): significant reduction
- IC50 (U251 human glioblastoma): 5.21 µM
- IC50 [2]: 3.07 µM
- IC50 [3]: 3.32 µM
- Selectivity (IC50Compound II/IC50 Doxorubicin) ([4]; AML12, ratio to doxorubicin): 4290
- IC50 ([4]; read-out: IC50 AML12, non-tumorigenic cell line, 72 hours, MTS): 730 µM
- IC50 [5]: 6.69 µM
- cellular localization of fluorescence (HCT116 cells [6]): activated and released doxorubicin in the cytosol
